The results in this text go back to patent US11021457B2, “Class of isoindolone-imide ring-1,3-dione-2-ene compounds, composition and use thereof” (WIGEN BIOMEDICINE TECHNOLOGY (SHANGHAI) CO., LTD., priority 2017, dated 2021).

The structures appear in SMILES notation.

One experiment has as its system SU-DHL6. The experiment in a line: Inhibition of tumor cell proliferation, CellTiter-Glo, SU-DHL6. The experiment is classed as cell-based. To be noted: compound concentration 50 μM, 72 hours. Background: ATP-based viability assays read luminescence as a measure of living cells.
In another experiment the test system is RPMI-8226. The experiment in a line: Inhibition of tumor cell proliferation, CellTiter-Glo, RPMI-8226. The experiment is classed as cell-based. To be noted: compound concentration 50 μM, 72 hours.
In a further experiment the test system is K562. Briefly: Inhibition of tumor cell proliferation, CellTiter-Glo, K562. The experiment is classed as cell-based. The note with it: compound concentration 50 μM, 72 hours.
The next experiment deals with A549. The experiment in a line: Inhibition of tumor cell proliferation, CellTiter-Glo, A549. The experiment is classed as cell-based. The note with it: compound concentration 50 μM, 72 hours.
Another experiment deals with MDA-MB-453. The experiment in a line: Inhibition of tumor cell proliferation, CellTiter-Glo, MDA-MB-453. The experiment is classed as cell-based. To be noted: compound concentration 50 μM, 72 hours.
Another experiment has as its system BxPC-3. The experiment in a line: Inhibition of tumor cell proliferation, CellTiter-Glo, BxPC-3. To be noted: compound concentration 50 μM, 72 hours. The experiment is classed as cell-based.
The next experiment concerns the target LC3B (Homo sapiens (Human), UniProt Q9GZQ8). The experiment in a line: Fluorescence polarization experiment targeting LC3B (GST-LC3B with FITC-labeled peptide). The note with it: GST-LC3B 180 nM, FITC-labeled peptide 18 nM, 25° C. (In general: In fluorescence polarisation assays a small probe gives low polarisation when free and higher when bound to something large.)

For orientation: IC50 means the midpoint of a concentration-inhibition curve. In the case of `O=C1CCC(N2Cc3c(NC(=O)[C@H](CCCNC=C4C(=O)CC(c5ccccc5)CC4=O)NC=C4C(=O)CC(c5ccccc5)CC4=O)cccc3C2=O)C(=O)N1` (some centres unmarked), the “Inhibitory activity against proliferation (cell survival rate) SU-DHL6” value with SU-DHL6 is “+ (60≤survival rate (%)<90)”. For the same compound, in the experiment with RPMI-8226, the “Inhibitory activity against proliferation (cell survival rate) RPMI-8226” value is listed as “+++ (survival rate (%)≤30)”. Also, the “Inhibitory activity against proliferation (cell survival rate) K562” value in the experiment with K562 was “+++ (survival rate (%)≤30)”. Besides, in the experiment on A549, the “Inhibitory activity against proliferation (cell survival rate) A549” value is “+++ (survival rate (%)≤30)”. In the experiment with MDA-MB-453, the “Inhibitory activity against proliferation (cell survival rate) MDA-MB-453” value is “+ (60≤survival rate (%)<90)”. Moreover, the “Inhibitory activity against proliferation (cell survival rate) BxPC-3” value in the experiment on BxPC-3 is recorded as “+ (60≤survival rate (%)<90)”. The compound further came in with an IC50 at LC3B of 100 to 1000 µM.

Consider `O=C1CCC(N2Cc3c(NC=C4C(=O)CC(c5ccnc6ccccc56)CC4=O)cccc3C2=O)C(=O)N1` (centres unmarked), for which the “Inhibitory activity against proliferation (cell survival rate) SU-DHL6” value in the experiment on SU-DHL6 is on record as “+ (60≤survival rate (%)<90)”. Moreover, the “Inhibitory activity against proliferation (cell survival rate) RPMI-8226” value in the experiment on RPMI-8226 was “+++ (survival rate (%)≤30)”. The “Inhibitory activity against proliferation (cell survival rate) K562” value in the experiment with K562 is reported as “++ (30<survival rate (%)≤60)”. For the same compound, the “Inhibitory activity against proliferation (cell survival rate) A549” value with A549 is “+ (60≤survival rate (%)<90)”. The “Inhibitory activity against proliferation (cell survival rate) MDA-MB-453” value in the experiment with MDA-MB-453 was “+++ (survival rate (%)≤30)”. For the same compound, in the experiment with BxPC-3, the “Inhibitory activity against proliferation (cell survival rate) BxPC-3” value is on record as “+ (60≤survival rate (%)<90)”.

Regarding `O=C1CCC(N2C(=O)c3cccc(NCCOCCOCCOCCN4CCN(CCNC=C5C(=O)CC(c6ccccc6)CC5=O)CC4)c3C2=O)C(=O)N1` (centres unmarked), the “Inhibitory activity against proliferation (cell survival rate) SU-DHL6” value in the experiment on SU-DHL6 was “+++ (survival rate (%)≤30)”. Further, in the experiment with RPMI-8226, the “Inhibitory activity against proliferation (cell survival rate) RPMI-8226” value is “++ (30<survival rate (%)≤60)”. The “Inhibitory activity against proliferation (cell survival rate) K562” value in the experiment on K562 was “+ (60≤survival rate (%)<90)”. The “Inhibitory activity against proliferation (cell survival rate) A549” value with A549 is listed as “+++ (survival rate (%)≤30)”. Also, the “Inhibitory activity against proliferation (cell survival rate) MDA-MB-453” value in the experiment on MDA-MB-453 is recorded as “+ (60≤survival rate (%)<90)”. Further, the “Inhibitory activity against proliferation (cell survival rate) BxPC-3” value in the experiment on BxPC-3 is on record as “+ (60≤survival rate (%)<90)”. In addition, the IC50 on LC3B lay within 15 to 100 µM.
